Laboratory results taken from ChEMBL document CHEMBL1795251, “Structure-based design of thienobenzoxepin inhibitors of PI3-kinase” (Bioorg Med Chem Lett, 2011).

By UniProt entry, the sequences of proteins in these tests, tags left out.
UniProt P42336, whole entry: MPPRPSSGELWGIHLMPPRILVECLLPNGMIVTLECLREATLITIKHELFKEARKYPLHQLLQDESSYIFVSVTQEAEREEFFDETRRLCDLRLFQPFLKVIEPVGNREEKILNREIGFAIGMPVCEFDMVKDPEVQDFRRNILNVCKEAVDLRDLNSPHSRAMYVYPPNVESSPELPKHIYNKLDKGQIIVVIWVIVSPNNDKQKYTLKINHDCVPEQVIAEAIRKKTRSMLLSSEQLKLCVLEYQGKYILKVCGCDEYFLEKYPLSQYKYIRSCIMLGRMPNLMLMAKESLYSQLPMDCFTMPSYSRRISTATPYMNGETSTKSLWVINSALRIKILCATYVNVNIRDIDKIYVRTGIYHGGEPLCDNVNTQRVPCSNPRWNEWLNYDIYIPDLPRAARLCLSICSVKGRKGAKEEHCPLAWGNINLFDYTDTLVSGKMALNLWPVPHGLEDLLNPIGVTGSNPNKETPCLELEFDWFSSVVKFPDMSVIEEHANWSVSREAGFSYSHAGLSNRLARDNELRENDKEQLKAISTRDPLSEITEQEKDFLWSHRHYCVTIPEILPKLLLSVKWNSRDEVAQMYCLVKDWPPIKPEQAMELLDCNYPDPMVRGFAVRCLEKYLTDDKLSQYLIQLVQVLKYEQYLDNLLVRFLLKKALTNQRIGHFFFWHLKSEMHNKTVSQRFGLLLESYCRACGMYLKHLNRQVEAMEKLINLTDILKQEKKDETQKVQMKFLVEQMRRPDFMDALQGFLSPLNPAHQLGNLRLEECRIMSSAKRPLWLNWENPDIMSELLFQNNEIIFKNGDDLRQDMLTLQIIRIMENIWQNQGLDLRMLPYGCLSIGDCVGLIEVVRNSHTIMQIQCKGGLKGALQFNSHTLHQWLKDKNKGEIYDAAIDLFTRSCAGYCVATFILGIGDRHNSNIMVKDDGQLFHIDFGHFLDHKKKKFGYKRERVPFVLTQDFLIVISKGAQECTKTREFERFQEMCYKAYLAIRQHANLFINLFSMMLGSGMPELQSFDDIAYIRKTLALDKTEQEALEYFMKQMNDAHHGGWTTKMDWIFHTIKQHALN

Target: Phosphatidylinositol 4,5-bisphosphate 3-kinase catalytic subunit alpha isoform (Homo sapiens, UniProt P42336)

- IC50: 108 nM
Compound: CN(C(=O)c1cc2c(s1)-c1ccccc1OC2)c1ccccc1Cl
